Our source for the Potency values is PubChem BioAssay AID588591 (National Center for Advancing Translational Sciences (NCATS), 2011).

Protein sequences, listed by entry. Tags and fused reporters are not part of them. Lines headed by an entry give the natural chain unless they say otherwise; changes in a name come on top.
UniProt Q9Y253: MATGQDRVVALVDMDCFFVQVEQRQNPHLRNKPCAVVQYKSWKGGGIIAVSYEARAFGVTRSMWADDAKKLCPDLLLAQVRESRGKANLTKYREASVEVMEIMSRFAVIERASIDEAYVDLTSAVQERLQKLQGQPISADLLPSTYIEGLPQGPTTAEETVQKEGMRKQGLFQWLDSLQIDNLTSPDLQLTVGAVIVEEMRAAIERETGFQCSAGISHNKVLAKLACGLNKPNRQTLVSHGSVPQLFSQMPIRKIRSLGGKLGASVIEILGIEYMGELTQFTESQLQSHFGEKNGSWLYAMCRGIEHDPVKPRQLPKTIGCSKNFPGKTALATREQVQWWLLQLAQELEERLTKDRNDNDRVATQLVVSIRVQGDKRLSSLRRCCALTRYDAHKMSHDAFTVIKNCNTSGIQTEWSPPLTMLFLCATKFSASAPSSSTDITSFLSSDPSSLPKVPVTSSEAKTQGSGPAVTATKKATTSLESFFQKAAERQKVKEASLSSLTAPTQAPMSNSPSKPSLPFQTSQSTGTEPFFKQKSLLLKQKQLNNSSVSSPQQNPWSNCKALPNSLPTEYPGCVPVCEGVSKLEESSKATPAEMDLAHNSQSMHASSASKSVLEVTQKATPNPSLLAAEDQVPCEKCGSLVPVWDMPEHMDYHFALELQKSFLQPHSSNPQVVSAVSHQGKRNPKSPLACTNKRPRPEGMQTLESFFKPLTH

Only a part is listed here, and it is no random draw. Records with an inconclusive call do not appear. A call without a number means that no potency is given here. Calls of active or inactive are those of the source. Calls follow the shape of the dose curve; as a rule, active = well fitted inhibition curve with a large enough effect; inconclusive = small, poorly fitted or top-dose-only effect, or another doubt; inactive = no such curve, though single readings can be large or run the other way.
Potency is read from the fitted curve at half-maximal effect.

This experiment concerns the target DNA polymerase eta (Homo sapiens) (UniProt Q9Y253). The experiment can be described thus: qHTS for Inhibitors of Polymerase Eta. Conditions: recombinant Pol eta, fluorescent DNA replication assay; series mostly up to 114 µM. For orientation: In qHTS, concentration-response curves come from the screen itself.
As to `COP1(=S)c2c(C)nn(CCC#N)c2N=C(c2ccc(F)cc2)N1C` (configuration not stated), the Potency result is “inactive”.

Regarding `O=C(O)C(=O)c1ccc(N(CCCl)CCCl)cc1`, the Potency entry was “inactive”. On to `O=C(COc1ccccc1)OC1CN2CCC1CC2` (configuration not stated), for which the Potency entry was “inactive”.

Consider `O=C(Nc1ccncc1[N+](=O)[O-])c1ccc([N+](=O)[O-])cc1[N+](=O)[O-]`, for which the Potency entry was “inactive”. Take `O=C(OC1CN2CCC1CC2)c1cccc([N+](=O)[O-])c1` (configuration not stated): the Potency entry was “inactive”. For the compound `CSc1ccc(Nc2c([N+](=O)[O-])cc([N+](=O)[O-])cc2[N+](=O)[O-])cc1`, the Potency result was “inactive”.

In the case of `CCOC(=O)c1ccc(NC(=O)C(C)(CCl)SC)cc1` (configuration not stated), the Potency result was “inactive”.

For `CCC(C)N(CC(C)C)C(=S)SC(NC(C)=O)C(Cl)(Cl)Cl` (configuration not stated), the Potency result was “inactive”.

Consider `O=C(O)C(O)c1ccc(N(CCCl)CCCl)cc1` (configuration not stated), for which the Potency entry is “inactive”. The same measure for `CCOC(=O)Nc1ccc([As](=O)(O)O)c(O)c1`: “inactive”; for `CC1CCNP(=O)(N(CCCl)CCCl)O1` (configuration not stated): “inactive”. Turning to `COP(=O)(OC)N1CC1c1ccccc1` (configuration not stated), the Potency result was “inactive”.

As for `CCCCOc1ccc(C(=O)NCC2(N3CCCCC3)CCCCC2)cc1OC`, the Potency entry was “inactive”. The entry for `Cc1cc(SC(NC(=O)c2ccccc2)C(Cl)(Cl)Cl)nc(C(C)C)n1` (configuration not stated) is “inactive”.

With `CCOC(=O)Nc1cccc([As](=O)(O)O)c1`, the Potency entry was “inactive”. The entry for `Cc1cc(SC(NC=O)C(Cl)(Cl)Cl)ncn1` (configuration not stated) is “inactive”. `O=P(Nc1ccccn1)(c1cccc2ccccc12)c1cccc2ccccc12`: the Potency result was “inactive”.

Consider `O=[N+]([O-])c1ccc(Nc2ccc(Oc3ccc([N+](=O)[O-])cc3[N+](=O)[O-])cc2)c([N+](=O)[O-])c1`, for which the Potency entry was “inactive”. Take `O=[As](O)(c1ccc(O)cc1)c1ccccc1O`: the Potency result was “inactive”. With `C[As](=O)(O)c1cccc(C(=O)O)c1`, the Potency entry is “inactive”. The entry for `O=[N+]([O-])c1ccc(-c2cc([N+](=O)[O-])c(O)c([N+](=O)[O-])c2)cc1` is “inactive”.

For `COc1cc(C(=O)NCC2(N3CCOCC3)CCCCC2)ccc1OCC(C)C`, the Potency result was “inactive”. The same measure for `Cc1ccc(OP(=O)(Nc2ccc([N+](=O)[O-])cn2)Oc2ccc(C)cc2)cc1`: “inactive”; for `Cc1ccc2nc3c(c(C)c2c1)CC(C(Cl)Cl)S3` (configuration not stated): “inactive”. The entry for `ClCCSc1nnc(-c2cccnc2)o1` is “inactive”; for `COC(=O)C1(C)COP(=O)(N2CCCCCC2)OC1` (configuration not stated) it is “inactive”. Take `CC(C)c1ccc(OP(=O)(Nc2ccccn2)Oc2ccccc2F)cc1` (configuration not stated): the Potency result was “inactive”. On to `CC(C)NC(=O)NP(=O)(Oc1ccccc1)Oc1ccccc1`, for which the Potency entry was “inactive”. `CCN(CC)C(=S)SC(NC=O)C(Cl)(Cl)Cl` (configuration not stated): the Potency entry is “inactive”.

As for `O=C(OC1CN2CCC1CC2)c1cccc2[nH]cnc12` (configuration not stated), the Potency result was “inactive”. Consider `Cc1c2c(nc3ccccc13)SC(C(Cl)Cl)C2` (configuration not stated), for which the Potency result is “inactive”. The entry for `O=C(OC1CN2CCC1CC2)C12CC3CC(CC(C3)C1)C2` (configuration not stated) is “inactive”. For `Cc1cc(=O)[nH]c(N[N+](=O)[O-])n1`, the Potency result is “inactive”. Turning to `O=P1(N(CCCl)CCCl)Nc2ccccc2N1`, the Potency entry was “inactive”.

Take `O=P1(N(CCCl)CCCl)OCCCN1CCCl` (configuration not stated): the Potency entry was “inactive”. The same measure for `COc1ccc2nc(NP(=O)(c3ccccc3)c3ccccc3)sc2c1`: “inactive”.

Turning to `COc1cc(I)ccc1[As](=O)(O)O`, the Potency result is “inactive”. The same measure for `O=[N+]([O-])c1cc(Oc2ccc([N+](=O)[O-])cc2C(F)(F)F)cc([N+](=O)[O-])c1`: “inactive”.

For the compound `COc1ccc(N/C(=N/P(=O)(N2CCOCC2)N2CCOCC2)N2CCOCC2)cc1`, the Potency result was “inactive”. `O=C(OC1CN2CCC1CC2)c1ccc(Cl)cc1` (configuration not stated): the Potency result is “inactive”. The entry for `CN(C(=O)Cc1ccc(Cl)c(Cl)c1)[C@@H]1CC[C@]2(CCCO2)C[C@H]1N1CCCC1` is “inactive”. The same measure for `O=[As](O)(O)c1cccnc1`: “inactive”; for `COc1cc(C(=O)NCC2(N3CCOCC3)CCCCC2)cc(Cl)c1OC(C)C`: “inactive”. Regarding `CS(=O)(=O)c1ccc(Cl)c(NC(=O)COC(=O)C(O)(c2ccccc2)c2ccccc2)c1`, the Potency result is “inactive”.

On to `Cc1cccc(OCC(=O)OC2CN3CCC2CC3)c1` (configuration not stated), for which the Potency entry was “inactive”. The entry for `O=[As](O)(c1cccc(O)c1)c1cccc(O)c1` is “inactive”; for `Cc1ccc(NCCc2c([N+](=O)[O-])cc([N+](=O)[O-])cc2[N+](=O)[O-])cc1` it is “inactive”; for `Nc1cccc2c([As](=O)(O)O)cccc12` it is active: 20 µM.

`CCCOP(=S)(Nc1nc(N)cc(=O)[nH]1)OCCC`: the Potency result is “inactive”. Turning to `COc1cc(C2NCCC3(OCCO3)C2(C)C)cc(OC)c1OC` (configuration not stated), the Potency result was “inactive”.

Take `CCOP(=O)(Nc1cccc2ccccc12)OCC`: the Potency result is “inactive”. As to `CCOP1(=S)c2c(C)nn(CCC#N)c2N=C(c2ccccc2F)N1C` (configuration not stated), the Potency result was “inactive”. Consider `O=P(Nc1nccs1)(Oc1ccccc1)Oc1ccccc1`, for which the Potency result is “inactive”. The same measure for `O=P(Nc1nccs1)(c1ccccc1)c1nc2ccccc2s1` (configuration not stated): “inactive”; for `CS(=O)(=O)c1cc([N+](=O)[O-])c2no[n+]([O-])c2c1`: active: 79.4 µM. The entry for `O=C(O)COc1ccc([As](=O)(O)O)cc1[N+](=O)[O-]` is “inactive”. As for `Nc1ccccc1[As](=O)(O)c1ccccc1`, the Potency entry is “inactive”.

`NC(=O)Nc1ccc([As](=O)(O)O)cc1`: the Potency result was “inactive”.

As for `N#CCCN(C(=O)COC(=O)C(O)(c1ccccc1)c1ccccc1)c1ccc(F)cc1`, the Potency result is “inactive”. The same measure for `CCOP1(=S)c2c(C)nn(CCC#N)c2N=C(c2ccc(F)cc2)N1C` (configuration not stated): “inactive”. The same measure for `CN(C(=O)Cc1ccccc1)[C@@H]1CC[C@]2(CCCO2)C[C@H]1N1CCCC1`: “inactive”. Take `O=[N+]([O-])c1ccc2c(c1)nnn2O`: the Potency result was “inactive”.

On to `CN(C)C(=O)c1cc([N+](=O)[O-])cc2c1-c1c(cc([N+](=O)[O-])cc1[N+](=O)[O-])C2=O`, for which the Potency result was “inactive”.

Turning to `CN(C(=O)Cc1ccc(Cl)c(Cl)c1)[C@H]1CC[C@@]2(CCCO2)C[C@@H]1N1CCCC1`, the Potency entry was “inactive”. Regarding `Cc1nn(-c2ccccc2)c2c1P(=O)(N1CCOCC1)N(C)C(c1ccccc1)=N2` (configuration not stated), the Potency entry is “inactive”. The entry for `Cc1ccc(C(=O)OC2CN3CCC2CC3)cc1` (configuration not stated) is “inactive”; for `CC1CCC(C(C)C)C(OP(=O)(Nc2ccccn2)c2ccccc2)C1` (configuration not stated) it is “inactive”; for `CN(C)C1(CNC(=O)c2ccc(S(C)(=O)=O)cc2)CCCCC1` it is “inactive”. For the compound `O=C(/C=C/c1ccccc1)OC1CN2CCC1CC2` (configuration not stated), the Potency result is “inactive”. For the compound `CCCC1OP(=O)(Nc2ccccc2)OCC1CC` (configuration not stated), the Potency entry was “inactive”. The same measure for `O=P1(Nc2ncccn2)COc2ccccc2OC1`: “inactive”.

`Nc1cccc([As](=O)(O)c2ccccc2)c1`: the Potency result was “inactive”. The entry for `Cc1ccc(OCC(=O)OC2CN3CCC2CC3)cc1` (configuration not stated) is “inactive”. The same measure for `O=[As](O)(c1cccs1)c1cccs1`: “inactive”; for `NS(=O)(=O)c1cccc(NC(=O)COC(=O)C(O)(c2ccccc2)c2ccccc2)c1`: “inactive”.

Turning to `O=P1(Nc2ccc(Br)cn2)COc2ccccc2OC1`, the Potency entry is “inactive”.

Take `CCC1=CC2Cc3nc4ccc(Cl)cc4c(N)c3C(C1)C2` (configuration not stated): the Potency entry was “inactive”. As for `O=P1(Nc2ccccn2)COc2ccccc2OC1`, the Potency entry is “inactive”. The entry for `CCOP(=O)(NC(=NC(C)c1ccccc1)NC(C)c1ccccc1)OCC` (configuration not stated) is “inactive”; for `CCOP(=O)(Nc1ccc(C)cn1)OCC` it is “inactive”; for `CN(CCCl)Cc1cc(Cl)c(NC2=NCCN2)c(Cl)c1` it is “inactive”.

As for `Clc1n[nH]nc1-c1nn[nH][15n]1`, the Potency entry was “inactive”. The entry for `O=P1(N(CCCl)CCCl)NCCC(C(F)(F)F)O1` (configuration not stated) is “inactive”. The entry for `CC(C)(C)C(=O)NC(Sc1ncccn1)C(Cl)(Cl)Cl` (configuration not stated) is “inactive”. The same measure for `COc1ccccc1CNC(=O)COC(=O)C(O)(c1ccccc1)c1ccccc1`: “inactive”; for `CN(C(=O)Cc1ccc(Cl)c(Cl)c1)[C@@H]1CCCC[C@H]1N1CCCC1`: “inactive”; for `CC(C)/C=N\N=C(\N)N[N+](=O)[O-]`: “inactive”. Consider `CC1(CBr)Cn2c(nc3ccccc3c2=O)S1` (configuration not stated), for which the Potency result is “inactive”. Take `O=P(Nc1nccs1)(c1ccccc1)c1ccccc1`: the Potency result was “inactive”. The entry for `CC(C)C(=O)NC(Sc1ccccc1)C(Cl)(Cl)Cl` (configuration not stated) is “inactive”. The same measure for `c1nnnn1CCn1cnnn1`: “inactive”; for `CN(C)C1(CNC(=O)c2ccc(Cl)c(S(N)(=O)=O)c2)CCCCC1`: “inactive”. For `O=P(Nc1ccccn1)(c1ccc(Br)cc1)c1ccc(Br)cc1`, the Potency result is “inactive”. For the compound `COc1ccc(N)c([N+](=O)[O-])c1[N+](=O)[O-]`, the Potency is active: 20 µM.

Consider `O=P(Nc1nc2ccccc2s1)(c1ccccc1)c1ccccc1`, for which the Potency result is “inactive”. For the compound `C[C@H]1OP(=O)(Oc2ccccc2)[C@H](O)[C@H](O)[C@H]1N=[N+]=[N-]` (some centres not stated), the Potency entry is “inactive”. On to `O=[As](O)(c1ccccc1)c1ccc(O)cc1`, for which the Potency result is “inactive”. The entry for `CC(=O)NC(SC(=S)N(C)C)C(Cl)(Cl)Cl` (configuration not stated) is “inactive”; for `O=[N+]([O-])c1ncn(CCn2cnc([N+](=O)[O-])n2)n1` it is “inactive”. On to `O=[N+]([O-])c1ccc(O)c(/C=N/Nc2ccc([N+](=O)[O-])cc2[N+](=O)[O-])c1`, for which the Potency result is “inactive”. The entry for `O=C(OC1CN2CCC1CC2)c1cccc(Cl)c1` (configuration not stated) is “inactive”; for `C(Cc1nn[nH]n1)Cc1nn[nH]n1` it is “inactive”; for `Nc1ccc([As](=O)(O)c2ccc([N+](=O)[O-])cc2)cc1` it is “inactive”.

Turning to `c1ccc(-c2nn[nH]n2)c(-c2nn[nH]n2)c1`, the Potency result was “inactive”. The entry for `Cc1ccc(NP(=O)(Oc2cccc(C)c2)Oc2cccc(C)c2)nc1` is “inactive”.

For the compound `O=C(NC1CCS(=O)(=O)C1)NP(=S)(Oc1ccccc1)Oc1ccccc1` (configuration not stated), the Potency result is “inactive”. Take `CCNC(=S)/N=C(\N)N[N+](=O)[O-]`: the Potency entry is “inactive”. The entry for `O=P1(N(CCCl)CCCl)OCCC2CCCCN21` (configuration not stated) is “inactive”; for `O=C(OC1CN2CCC1CC2)c1ccccc1` (configuration not stated) it is “inactive”. Regarding `CN(C(=O)Cc1ccc(Cl)c(Cl)c1)[C@@H]1CCCC[C@@H]1N1CCCC1`, the Potency entry is “inactive”.

As to `CCC(=O)N1C2C3N(C(=O)CC)C1C1N(C(=O)CC)C(C(N1C(=O)CC)N3C(=O)CC)N2C(=O)CC`, the Potency result was “inactive”. The same measure for `COC(=O)c1cc2c(s1)N=C(c1ccccc1)N(C)P2(=O)N1CCOCC1` (configuration not stated): “inactive”. The entry for `CC(=O)NC(SC(=S)N(CC(C)C)CC(C)C)C(Cl)(Cl)Cl` (configuration not stated) is “inactive”; for `Cc1ccc(OP(=O)(Nc2ccccn2)Oc2ccc(C)cc2)cc1` it is “inactive”; for `CC(NC(=O)COC(=O)C(O)(c1ccccc1)c1ccccc1)c1ccccc1` (configuration not stated) it is “inactive”.

On to `Cc1ccccc1OP(=O)(Nc1ccccn1)Oc1ccccc1C`, for which the Potency result is “inactive”. The same measure for `CN(C)C(=O)Oc1noc2ccccc12`: “inactive”.
